## Binding of CDR-mutated scFvs to a peptide of the spike HR2 region

Values reported by Li et al. 2023, doi:10.1038/s41467-023-39022-2 (FLAb copy).

The target is the same throughout: PDVDLGDISGINAS, from the HR2 region of SARS-CoV-2 spike.

Parent: Ab-14, a human scFv built as VH, the linker GGGGSGGGGSGGGGS, VL. Only the CDRs of the light chain vary.
VH: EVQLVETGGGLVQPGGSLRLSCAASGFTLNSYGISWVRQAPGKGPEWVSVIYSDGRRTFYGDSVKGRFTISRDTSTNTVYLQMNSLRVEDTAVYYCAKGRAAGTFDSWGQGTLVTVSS
VL: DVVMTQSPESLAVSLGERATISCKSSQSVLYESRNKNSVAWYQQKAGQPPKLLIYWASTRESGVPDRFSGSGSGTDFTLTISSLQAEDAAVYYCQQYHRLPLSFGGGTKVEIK

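Phage display of a naive human antibody library on the peptide gave the parent. Designed CDR sequences, proposed from the first random library and measured here. Group labels follow the data file (Ctrl: baseline library sampled from a position-specific scoring matrix, with some repeated check sequences; Rand: our label for a block that the file lists under HC and that is probably the random mutants of the ten best first-round binders; En: ensemble of fine-tuned language models; GP: Gaussian process model; GPLM: also part of the Gaussian process libraries; HC: hill climbing; Gen: genetic algorithm; Gibbs: Gibbs sampling; a sequence that several methods proposed may carry one label only). AlphaSeq pools MATa yeast showing the antibodies with MATalpha yeast showing the peptide. Pairs that bind mate more often; barcode pairs of the diploids are counted by sequencing. The ratio of observed to expected reads was calibrated, replicate by replicate, on BCL2-family standards whose Kd was known from biolayer interferometry. There are six technical replicates.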

The parent's light chain CDRs are KSSQSVLYESRNKNSVA, WASTRES, QQYHRLPLS; each variant's own CDRs replace them letter for letter. Values are log10 of the apparent Kd in nM; lower means stronger binding. Averages over replicates are reported, and they cover detected replicates only. "nd" marks a missing value. The strain was present, yet no cells mated with the target were sequenced in any replicate, which points to weak or no binding. Nonspecific signal, from three strains lacking the peptide, appeared in 4% of pairings of all light chain designs, centred on 2.64 (5% of these signals below 1.59); values are not corrected for it. Also given: how often the same scFv was detected with the empty control strains. The authors' rule: three or more of the six replicates give a measured affinity, fewer mean a poor binder. Of ten entries with the parent sequence, four were seen in most replicates (averages 0.34 to 2.37), three in one and three in none, so single entries are noisy. The range of this assay differs from that of the first round, and the authors advise against merging the two.

CDR-L1 | CDR-L2 | CDR-L3 | group | mean, log10 nM | replicates with signal | signal with controls
KASQSALQEMRNKNSVA | SASTRES | QQYHRLPLS | Ctrl | 0.06 | 6 of 6 | 1 of 18
KSSQSYLYESRNKNSVA | EASTRES | QQYHRLPLS | GPLM_HC | -0.19 | 6 of 6 | 1 of 18
KSSQSVRYESRNVNSVA | WASTREL | QQYHRLPLY | Ctrl | 0.97 | 1 of 6 | 0 of 18
KSSQSVLYEGRNKNSVA | WISTRES | QQYSRLPLS | Ctrl | nd | 0 of 6 | 0 of 18
MIQGSVMSESRLKNSVA | QTTTRES | QQYDRLPLS | En_HC | 1.00 | 6 of 6 | 0 of 18
KLSQSELYESRNKNSVA | GGSTRES | QQYHRLPLS | GP_HC | -0.25 | 6 of 6 | 2 of 18
IIDQIMFHGNKSANSIA | QAEERVN | QQYYHLPLT | En_Gen | 0.93 | 6 of 6 | 1 of 18
KVSQSVLYESRNKQSVA | NASTRES | QQYHRLPLS | GP_Gen | -0.38 | 6 of 6 | 0 of 18
HITYGMMVHGRHSSSIA | QAETRAK | QQYDRLPLM | En_Gen | 1.46 | 6 of 6 | 3 of 18
KLSQSVWYESRNKNSVA | AASTRES | QQYHRLPLS | Ctrl | -0.14 | 6 of 6 | 0 of 18
KVDQSKLQGQRNKNSVA | EASTRER | QQYHRLPLS | GP_Gibbs | -0.04 | 6 of 6 | 2 of 18
KLRQSTLYESRNKNSVA | QASTRLS | QQYHRLPLS | GP_HC | 0.19 | 6 of 6 | 2 of 18
KVSDSYLLESRNKNSVA | EASTRES | QQYHRLPLS | GP_HC | 0.21 | 6 of 6 | 0 of 18
KSSQSVLDESRNKNSVA | RASTRES | QQYHRLPLS | Ctrl | 1.38 | 6 of 6 | 0 of 18
KLSQSFLMESMNKNSVA | EASQRIW | QQYHRLPLS | GP_Gibbs | 0.23 | 6 of 6 | 0 of 18
HLELEEMQMMKDINSIA | DTEHKTR | QQYFRLPIS | En_Gibbs | 0.63 | 6 of 6 | 0 of 18
KLGDMVHTESRNKNSIA | DLRTRES | QQYYRLPLS | En_HC | -0.38 | 6 of 6 | 0 of 18
KDSQSVLYSSNNKNSVA | WASTRES | QQYHRLPLS | Ctrl | 1.81 | 6 of 6 | 1 of 18
KVDISPHVQGMHKHGVA | EHDMRVS | QQYDRLPLA | En_Gibbs | 0.42 | 6 of 6 | 0 of 18
KISQMYRYEQQNSGSIA | EVSTRLN | QSYHRLPLS | En_HC | 1.51 | 6 of 6 | 0 of 18
KLTDYMQGSNAMDNSIA | QTNIYHE | QQYGRLPLV | En_Gibbs | 1.42 | 6 of 6 | 2 of 18
KFEMSQLYESRNMNSVA | NASEREQ | QQYHRLPLS | GP_Gibbs | -0.24 | 6 of 6 | 0 of 18
KLPQSYLYESRNKNSVA | HASTRES | QQYHRLPLS | GP_Gen | -0.28 | 6 of 6 | 0 of 18
KSSDSVLYESLNKNSVA | WASTRQS | QQYHRLPLS | Ctrl | 2.52 | 5 of 6 | 0 of 18
MISVEEAPAGQQESSIA | HGGTKSE | QQYNRLPLA | En_Gibbs | 1.02 | 5 of 6 | 0 of 18
HLSQSQDYESRNKNSVA | NASQRYQ | QQYHRLPLS | GP_Gibbs | -0.09 | 6 of 6 | 1 of 18
HSSPSVLYESRNKNSVA | NSSTRES | QQYHRLPLS | Rand | 0.19 | 6 of 6 | 1 of 18
KFSQSVLYEDRTKNSVA | NASTRES | QQYHRLPLS | GP_HC | 0.57 | 6 of 6 | 0 of 18
TISQMTSLFSQTINNVA | EVSTREQ | QQYDRLPLV | En_Gen | 0.83 | 6 of 6 | 0 of 18
KLPMSTMQESVSKNSVA | ELSTRGS | QQYHRLPLS | En_HC | 0.42 | 6 of 6 | 0 of 18
DMTVQFNGASKIQNSVA | HGVEKCD | QQYSRLPLA | En_Gibbs | -0.05 | 6 of 6 | 0 of 18
IVSQLMLWGMKAKNSIA | EAVTRVN | QQYDRLPLF | En_Gen | 0.43 | 6 of 6 | 0 of 18
KSSQPVLYESRNKNSVA | AASKRES | QQYHRLPLS | Ctrl | 0.38 | 6 of 6 | 1 of 18
KISGSYLGLSRNWNAVA | NASTREQ | QQYHRLPLS | GP_Gibbs | -0.01 | 6 of 6 | 2 of 18
HWSPSVAYESRNKNSVA | NASTRES | QQYHRLPLS | GP_HC | -0.33 | 6 of 6 | 0 of 18
KSMQSCLGESRNCNSVA | SASTREL | QQYHRLPLS | GP_Gibbs | 0.47 | 6 of 6 | 1 of 18
MLSEVLHMLGVKTNSIA | DLVLRAN | QQYHRLPLF | En_Gen | 1.85 | 6 of 6 | 1 of 18
KTSQSVEYESRNKNSVA | WASTRES | PQYHRLPLS | Ctrl | nd | 0 of 6 | 0 of 18
KSRQSVLMESRNKNSVA | WASLRES | QQYHHEPLS | Ctrl | nd | 0 of 6 | 0 of 18
SLVQKADYMDSERNNIA | NMRLRNE | QQYFHLPLT | En_Gibbs | 0.74 | 6 of 6 | 0 of 18
ILEENVDDITEIGNSIA | ETNMVRS | QQYHRLPLA | En_Gibbs | 1.34 | 6 of 6 | 0 of 18
KSSQSVLEESRNKNSVA | AASERES | QQYHRLPLS | Ctrl | 0.58 | 6 of 6 | 3 of 18
KISMYLNKEKKEGNNVA | EMVTREA | QQYDRLPLS | En_HC | 0.76 | 6 of 6 | 0 of 18
KLSQSTLYDSINKNSVA | WASTRES | QQYKRLPLS | GP_HC | 0.62 | 6 of 6 | 1 of 18
KSSQDVLLGSRNKNSVA | WASTRES | QSYHRLPLS | Ctrl | 2.03 | 6 of 6 | 0 of 18
KISQSVGYEDRNKNSVA | NASQRMQ | QQYHRLPLS | GP_Gibbs | 0.62 | 6 of 6 | 2 of 18
MISQVMNTLTRQGNNVA | DLAERED | QQYFRLPLS | En_Gen | 0.38 | 6 of 6 | 1 of 18
KLHISDGYESRNKNSVA | SASTRSH | QQYHRLPLS | GP_Gibbs | 0.10 | 6 of 6 | 1 of 18
KLSMSELYESRNKNSVA | NASTRMS | QQYHRLPLS | GP_Gen | -0.56 | 6 of 6 | 1 of 18
KLSGLMRVEQKKSNSIA | EMTTRGK | QQYDRLPLS | En_Gen | 1.16 | 6 of 6 | 0 of 18
TLYGLSNSMSINKDSVA | EMTTREE | QQYDRLPLI | En_Gen | 0.95 | 6 of 6 | 0 of 18
KISQSVLYESREDNSVA | SASTRES | QQYHRLPLS | Ctrl | 0.01 | 6 of 6 | 1 of 18
KLSQSHLYESRNKNNVA | EASTRES | QQYHRLPLS | GP_Gen | -0.52 | 6 of 6 | 0 of 18
MSSQSDLYESRNKNSVA | WASTRES | QQYHRLPLS | Ctrl | nd | 0 of 6 | 0 of 18
KSSISELYESMNKNSVA | NGSTRES | QQYHRLPLS | GP_HC | 0.10 | 6 of 6 | 1 of 18
KLDQSYLYESRNKNSVA | EASEREV | QQYHRLPLY | GP_Gibbs | 0.10 | 6 of 6 | 1 of 18
KSSQSVLYESRNKNSVA | QASTRSS | QQHHRLPLS | Ctrl | 2.56 | 4 of 6 | 0 of 18
IISESMLYESATHNSIA | QTSTREE | QQYHHLPLI | En_HC | 0.81 | 6 of 6 | 0 of 18
KLSQWQWYEDRNKNSVA | SASTRCH | QQYHRLPLS | GP_Gibbs | 0.36 | 6 of 6 | 1 of 18
KLQNSQEYESRMKNSVA | NASQRLE | QQYHRLPLS | GP_Gibbs | -0.10 | 6 of 6 | 1 of 18

The 6 strongest on average among those seen in every replicate, once more:

CDR-L1,CDR-L2,CDR-L3,group,"mean, log10 nM",replicates with signal,signal with controls
KLSMSELYESRNKNSVA,NASTRMS,QQYHRLPLS,GP_Gen,-0.56,6 of 6,1 of 18
KLSQSHLYESRNKNNVA,EASTRES,QQYHRLPLS,GP_Gen,-0.52,6 of 6,0 of 18
KLGDMVHTESRNKNSIA,DLRTRES,QQYYRLPLS,En_HC,-0.38,6 of 6,0 of 18
KVSQSVLYESRNKQSVA,NASTRES,QQYHRLPLS,GP_Gen,-0.38,6 of 6,0 of 18
HWSPSVAYESRNKNSVA,NASTRES,QQYHRLPLS,GP_HC,-0.33,6 of 6,0 of 18
KLPQSYLYESRNKNSVA,HASTRES,QQYHRLPLS,GP_Gen,-0.28,6 of 6,0 of 18